Target: I218V bsNOS (Bacillus subtilis (strain 168), UniProt O34453, I218V)
Assay: Imidazole displacement, spectral binding constant KS
Conditions: for Kd: I218V bsNOS, Table 8
Protocol: Purified bsNOS was diluted to 2 μM into a buffered solution containing 50 mM Tris (pH 7.6), 10 mM NaCl, 100 μM dithiothreitol and 1 mM imidazole to generate a low spin heme. NOS inhibitors were titrated into the bsNOS-buffered solution and the conversion of the heme group from low spin to high spin was monitored using a Cary 3E UV-visible spectrophotometer.

Amino acid sequences for entries named in this document (tags omitted).
UniProt O34453, whole entry I218V: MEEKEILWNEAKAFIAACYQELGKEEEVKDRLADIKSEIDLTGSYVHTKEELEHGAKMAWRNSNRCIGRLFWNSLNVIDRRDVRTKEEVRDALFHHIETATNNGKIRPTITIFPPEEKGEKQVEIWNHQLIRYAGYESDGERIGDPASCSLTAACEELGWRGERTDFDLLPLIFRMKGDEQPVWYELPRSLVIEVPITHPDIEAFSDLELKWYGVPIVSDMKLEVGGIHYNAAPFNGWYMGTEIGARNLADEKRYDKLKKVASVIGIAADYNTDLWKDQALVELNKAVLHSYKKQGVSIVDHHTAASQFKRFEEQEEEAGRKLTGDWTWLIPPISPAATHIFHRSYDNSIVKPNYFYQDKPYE

Row | Compound | Kd | fold tighter inhibitor binding to Ile-218 (WT bsNOS) over I218V (imidazole displacement)
1 | Cc1cc(N)nc(-c2ccc(CNCCc3cccc(F)c3)cc2)c1 [Compound 27, 6-(4-(((3-Fluorophenethyl)amino)methyl)phenyl)-4-methylpyridin-2-amine] | 58 ± 4 µM | 5-6 fold
2 | Nc1ccc2ccc(CCNCCCc3cccc(F)c3)cc2n1 [Compound 19] | 18 ± 2 µM | 

Reference: patent publication US9951014B2, “Mammalian and bacterial nitric oxide synthase inhibitors” (Northwestern University, priority 2014, dated 2018)
